DT40 TDP1 CPT – DT40-hTDP1 cell growth loss with CPT. Potency, µM (top dose mostly 46.2 µM), for inactives: top-dose activity change, negative = growth inhibition, actives largely listed as inhibitors. chicken DT40 Tdp1-/-;hTDP1 cells + 20 nM CPT, ATP luminescence, 48 h. 12% of 420,000 active; also: potency is read from the fitted curve at half-maximal effect; % is scaled to controls: 0 for no effect and ±100 for the full control effect; nearly all actives have a fitted effect of over 55% in size
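Chicken DT40 Tdp1-/- cells complemented with human TDP1, 400 cells/well, exposed to compounds plus 20 nM camptothecin for at least 48 h at 37 C; viability read as ATP content by CellTiter-Glo luminescence.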
TDP1 block – inhibitors of human tyrosyl-DNA phosphodiesterase TDP1; Q9NUW8; AID 485290; Potency, µM (top dose mostly 130 µM), inactives show at the highest dose activity change, negative = inhibition, actives largely listed as inhibitors; 0.28% of 350,000 active; recombinant TDP1, AlphaScreen DNA substrate cleavage; also: potency is read from the fitted curve at half-maximal effect; % is scaled to controls: 0 for no effect and ±100 for the full control effect; nearly all actives have a fitted effect of over 40% in size
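Here, a 5' biotin and 3' phosphotyrosine-FITC DNA oligonucleotide reports Tdp1 activity: intact substrate bridges AlphaScreen beads, while cleavage leaves a 3' phosphate and drops signal. All incubations at room temperature.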
DT40 TDP1 no CPT – qHTS for Inhibitors of human tyrosyl-DNA phosphodiesterase 1 (TDP1): qHTS in cells in absence of CPT; DT40 Tdp1-/- hTDP1 cells, no CPT, ATP luminescence, 48 h; Potency, µM (doses to about 46.2 µM), for the others: top-dose activity change, negative = growth inhibition, usual class: inhibitors; 15% of 420,000 active; AID 686978, 2013; also: potency is read from the fitted curve at half-maximal effect; % is scaled to controls: 0 for no effect and ±100 for the full control effect; nearly all actives have a fitted effect of over 55% in size
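DT40 Tdp1-/-;hTDP1 cells, no CPT (DMSO vehicle only), 400 cells/well; compounds pin-transferred; ≥48 hr, 37 °C; CellTiter-Glo 30 min RT dark, luminescence read.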
miR-21 reporter – miR-21 reporter, rising signal | HeLa miR-21 FLuc reporter, luciferase, 48 h | Potency, µM (top dose mostly 38.3 µM), inactives show at the top dose reporter change, positive = more light | 340,000 tested, under 10 active | AID 2288; active = well fitted rising curve with a large enough effect; inconclusive = small, poorly fitted or top-dose-only effect; inactive = no such curve, though single readings can be large or run the other way;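 further: % of control where 0% means no effect; miR-21 action dims this reporter so a rising signal means less miR-21 action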
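Luminescence from a firefly luciferase reporter carrying a miR-21 binding site downstream, stably expressed under a CMV promoter in HeLa cells that make miR-21 endogenously, reports miRNA modulation after 48 h compound exposure up to approximately 40uM final.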
uPA generation – cell surface uPA generation inhibition; cell surface uPA generation assay, qHTS; Potency, µM (doses to about 38.3 µM), for the others: top-dose activity change, negative = inhibition, usual class: inhibitors; AID 540303; 0.31% of 330,000 active; active = well fitted inhibition curve with a large enough effect; inconclusive = small, poorly fitted or top-dose-only effect; inactive = no such curve, though single readings can be large or run the other way; tested in mouse RAW 264.7 cells; also: potency is read from the fitted curve at half-maximal effect; % is scaled to controls: 0 for no effect and ±100 for the full control effect; nearly all actives have a fitted effect of over 55% in size
* marks the source's active call; other numbers are inactive results; ? = inconclusive; nt = no result. Shown are actives, neighbours in structure and some others; about 16% of the full set was active somewhere. Unless noted, calls follow the shape of the dose curve; as a rule, active = well fitted curve in the direction sought with a large enough effect; inconclusive = small, poorly fitted or top-dose-only effect, or another doubt; inactive = no such curve, though single readings can be large; an effect the other way counts as inactive or inconclusive.

1: O=C(NCc1cccc(F)c1)c1ccc(CN2CC(=O)N3CCCCC3C2=O)cc1 (configuration not stated)
2: O=C(Nc1cccc(Cl)c1)c1nc[nH]c1C(=O)N1CCc2ccccc2C1
3: Cc1cc(-c2onc3ccc(Cl)cc23)ccc1O
4: CCCCCCCCN1C(=O)[C@H](CC(=O)NCCCOCCCC)C[C@@]2(C(=O)OCC)CCCC=C12
5: CCCCOCCCNC(=O)C[C@@H]1C[C@@]2(C(=O)OCC)CCCC=C2N(CCc2ccc(OC)c(OC)c2)C1=O
6: CCCCCCCCN1C(=O)[C@H](CC(=O)NCCCC)C[C@@]2(C(=O)OC)CCCCC=C12
7: COCCCNC(=O)C[C@@H]1C[C@@]2(C(=O)OC)CCCCC=C2N(Cc2ccco2)C1=O
8: CCCCCCCCN1C(=O)[C@H](CC(=O)NCCCOCCCC)C[C@@]2(C(=O)OC)CCCCC=C12
9: CCCCCCCCN1C(=O)[C@H](CC(=O)NCCC(C)C)C[C@@]2(C(=O)OC)CCCCC=C12
10: CCCCC(=O)N(c1ccc(C)c(C)c1)C1C=CS(=O)(=O)C1 (configuration not stated)
Compound | 1 | 2 | 3 | 4 | 5 | 6 | 7 | 8 | 9 | 10
DT40 TDP1 CPT | -9% | 0% | ? | 13µM* | 21µM* | 16µM* | 1% | 13µM* | ? | -19%
TDP1 block | 6% | 1% | 6% | nt | nt | nt | nt | nt | nt | 4%
DT40 TDP1 no CPT | -6% | ? | ? | 16µM* | ? | 12µM* | 0% | 18µM* | 16µM* | -10%
miR-21 reporter | 2% | nt | -15% | nt | nt | nt | nt | nt | nt | 0%
uPA generation | nt | -1% | -5% | nt | nt | nt | nt | nt | nt | 4%

4 entries drawn at random from those above:
3: Cc1cc(-c2onc3ccc(Cl)cc23)ccc1O
7: COCCCNC(=O)C[C@@H]1C[C@@]2(C(=O)OC)CCCCC=C2N(Cc2ccco2)C1=O
2: O=C(Nc1cccc(Cl)c1)c1nc[nH]c1C(=O)N1CCc2ccccc2C1
10: CCCCC(=O)N(c1ccc(C)c(C)c1)C1C=CS(=O)(=O)C1 (configuration not stated)
Compound | 3 | 7 | 2 | 10
DT40 TDP1 CPT | ? | 1% | 0% | -19%
TDP1 block | 6% | nt | 1% | 4%
DT40 TDP1 no CPT | ? | 0% | ? | -10%
miR-21 reporter | -15% | nt | nt | 0%
uPA generation | -5% | nt | -1% | 4%

Next part:
11: COc1ccccc1/C=C1\Oc2cc(OC(=O)N3CCOCC3)ccc2C1=O
12: O=C1/C(=C/c2ccc3c(c2)OCO3)Oc2cc(OCC(=O)N3CCC[C@H]3C(=O)O)ccc21
13: COc1ccc(/C=C2\Oc3cc(OCC(=O)N4CCC[C@H]4CO)ccc3C2=O)c(OC)c1
14: COc1cccc(/C=C2\Oc3cc(OC(=O)N4CCOCC4)ccc3C2=O)c1
15: Cc1nc(Cc2nnc(SCC(=O)Nc3c(C)cccc3C)o2)cs1
16: O=C(NCCc1csc(-c2ccccc2)n1)c1c(F)cccc1F
17: O=C(NCCc1csc(-c2ccc(F)cc2)n1)c1c(F)cccc1Cl
18: O=C(NCCc1csc(-c2ccc(F)cc2)n1)c1cccc(F)c1
19: CCOC(=O)C1CCN(C(C(=O)NC2CCCCC2)c2ccc(OC)cc2)CC1 (configuration not stated)
20: C[C@H]1COC(=O)[C@H](CC(=O)OC(C)(C)C)C/C=C\C[C@@H](CC(=O)N[C@@H](CO)Cc2ccccc2)C(=O)N1
Compound | 11 | 12 | 13 | 14 | 15 | 16 | 17 | 18 | 19 | 20
DT40 TDP1 CPT | 15µM* | 21µM* | 23µM* | ? | -4% | ? | 23µM* | ? | ? | ?
TDP1 block | 3% | nt | nt | -1% | nt | 3% | 1% | 3% | 2% | 1%
DT40 TDP1 no CPT | 23µM* | -2% | ? | ? | -23% | ? | ? | 18µM* | ? | ?
miR-21 reporter | 0% | 1% | -14% | -1% | nt | 4% | -1% | 30% | 1% | nt
uPA generation | -19% | ? | 16% | 5% | -8% | -13% | nt | nt | 3% | 12%

21: Cc1ccc(Cl)cc1N1CCN(c2nc3ccc(C(=O)c4ccccc4)cc3n3cnnc23)CC1
22: Cc1ccc(C)c(N2CCN(c3nc4ccc(C(=O)c5ccccc5)cc4n4cnnc34)CC2)c1
23: Cc1ccc(N2CCN(c3nc4ccc(C(=O)c5ccccc5)cc4n4cnnc34)CC2)c(C)c1
24: COc1cccc(N2CCN(c3nc4ccc(C(=O)c5ccccc5)cc4n4c(C)nnc34)CC2)c1
25: O=C(c1ccccc1)c1ccc2nc(Nc3ccccc3)c3nncn3c2c1
26: CC(C)c1ccc(NC(=O)Nc2nc(C(N)c3ccccc3Cl)cs2)cc1 (configuration not stated)
27: CC(C)c1ccc(NC(=O)Nc2nc(C(C)N)cs2)cc1 (configuration not stated)
28: COc1ccc(NC(=O)Nc2ccc(C(C)C)cc2)cc1
29: CC(C)c1ccc(NC(=O)NCc2ccccn2)cc1
30: Clc1nnc(N2CCCCC2)c2ccccc12
Compound | 21 | 22 | 23 | 24 | 25 | 26 | 27 | 28 | 29 | 30
DT40 TDP1 CPT | 18µM* | ? | ? | ? | ? | 13µM* | 15µM* | -20% | 7% | ?
TDP1 block | 3% | 5% | 6% | 11% | nt | nt | nt | 6% | 4% | 0%
DT40 TDP1 no CPT | 23µM* | ? | 18µM* | 16µM* | ? | 10µM* | 15µM* | -24% | 0% | ?
miR-21 reporter | -2% | -2% | 0% | -5% | 8% | nt | nt | -39% | -51% | -38%
uPA generation | nt | nt | nt | nt | -3% | nt | nt | -2% | -15% | -14%

31: COC(=O)c1ccc(NC(=O)Nc2nnc(N(C)C3CCCCC3)s2)cc1
32: CN(c1nnc(NC(=O)Nc2ccc(Br)cc2)s1)C1CCCCC1
33: C(=N\Nc1ncnc2nc[nH]c12)/c1cccs1
34: COc1cccc(C2=NCCc3cc4c(cc32)OCO4)c1OC
35: COc1ccc2cc3[n+](cc2c1OC)CCc1cc2c(cc1-3)OCO2
36: CCCc1cc(C(=O)Nc2cc(Cl)ccc2O)no1
37: CCn1c(CC(=O)Nc2ccccc2)nnc1SCC(=O)NC1CCCC1
38: CO/N=C\CC(=O)Nc1ccc(Cl)cc1Cl
39: CC(Cn1cnc2ccccc21)C(=O)O (configuration not stated)
40: CC(=O)Nc1ccc(OCC(O)Cn2cnc3ccccc32)cc1 (configuration not stated)
Compound | 31 | 32 | 33 | 34 | 35 | 36 | 37 | 38 | 39 | 40
DT40 TDP1 CPT | ? | ? | 2% | -3% | 3.7µM* | 11% | 3% | 12µM* | -10% | -22%
TDP1 block | 6% | 11% | 3% | 3% | 2% | 10% | 9% | 5% | -2% | 4%
DT40 TDP1 no CPT | ? | 15µM* | 2% | ? | 2.3µM* | -24% | -2% | 21µM* | -2% | -20%
miR-21 reporter | 12% | -2% | -104% | -7% | 30% | -64% | 6% | 7% | 1% | 0%
uPA generation | nt | nt | ? | -3% | ? | 1% | 0% | -16% | 2% | 1%

41: OC(COc1ccc2c(c1)CCC2)Cn1cnc2ccccc21 (configuration not stated)
42: Cc1nn(CC(O)COc2ccc3c(c2)CCC3)c(C)c1C (configuration not stated)
43: CC(=O)OC(COc1cccc(C)c1)Cn1cnc2ccccc21 (configuration not stated)
44: CC(=O)N[C@@H]1C(O[C@H]2O[C@H](C(=O)O)C(O)[C@H](O)[C@H]2O)[C@H](O)[C@@H](CO)O[C@H]1O[C@@H]1C(C(=O)O)O[C@@H](O[C@H]2[C@H](O)[C@@H](CO)OC(O)[C@@H]2NC(C)=O)[C@H](O)[C@H]1O (some centres not stated)
45: CC(=O)NC1C(O)O[C@H](C(=O)O)[C@@H](O)[C@@H]1O (some centres not stated)
Compound | 41 | 42 | 43 | 44 | 45
DT40 TDP1 CPT | 10µM* | ? | ? | -2% | nt
TDP1 block | 11% | -5% | 5% | nt | 11%
DT40 TDP1 no CPT | 18µM* | 21µM* | 16µM* | 21µM* | nt
miR-21 reporter | -9% | -22% | -24% | nt | nt
uPA generation | 8% | 7% | 0% | nt | nt
